Yeast mating assay 2: variants of the scFv Ab-91

The target is the same throughout: PDVDLGDISGINAS, from the HR2 region of SARS-CoV-2 spike.

Ab-91 is the parent antibody, in scFv form: VL, then the linker GGGGSGGGGSGGGGS, then VH. The light chain is unchanged in all variants.
VL: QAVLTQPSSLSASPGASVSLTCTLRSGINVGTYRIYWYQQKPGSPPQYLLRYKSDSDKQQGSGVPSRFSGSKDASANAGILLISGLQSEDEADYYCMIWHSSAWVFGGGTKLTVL
VH: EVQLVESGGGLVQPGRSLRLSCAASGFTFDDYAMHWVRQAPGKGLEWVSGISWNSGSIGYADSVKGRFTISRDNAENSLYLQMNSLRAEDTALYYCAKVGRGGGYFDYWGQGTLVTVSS

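The parent was found by panning a naive human phage display library on the peptide. Variants in AAYL51 differ from the parent at up to three CDR positions; double and triple changes were sampled at random. In AlphaSeq, yeast of one mating type display the scFv and yeast of the other type display the target. Pairs that bind mate more often; barcode pairs of the diploids are counted by sequencing. Each replicate has its own calibration line, from reference interactions of the BCL2 family. The assay was run in three technical replicates.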

The whole VH of each variant is written out. Numbers give log10(Kd / nM), so 0 is 1 nM and 3 is 1 µM. Smaller is tighter. The mean shown is taken over the replicates in which the pair was detected. A pair that was not seen in that replicate is written "ND"; this usually means weak binding, but a binder can also be missed. Three control strains display no target. For library AAYL51, 21% of the pairings with them gave a signal, with a median of 4.54 and one signal in twenty below 3.26, so weak values seen in few replicates may be background. The control count says in how many pairings with the empty strains this scFv gave a signal, with their mean in brackets. For reference, the parent read 1.86 as the reference entry and 0.88 as a member of this library.

| # | VH | log10 Kd, replicates | log10 Kd (nM), mean | signal with controls |
|---|---|---|---|---|
| 1 | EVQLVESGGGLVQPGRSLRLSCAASGFTFDDYAMHWVRQAPGKGLEWVSGISWNSGSIGYADSVCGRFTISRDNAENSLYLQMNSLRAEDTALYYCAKVGRGGGYDDVWGQGTLVTVSS | 5.16 4.62 4.51 | 4.76 | 3/9 (4.58) |
| 2 | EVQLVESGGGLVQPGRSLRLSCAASQFTFDDYAMHWVRQAPGKGLEWVSGISGNSGSIGYADMVKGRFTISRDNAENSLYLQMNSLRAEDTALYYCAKVGRGGGYFDYWGQGTLVTVSS | ND 5.38 ND | 5.38 | 2/9 (4.89) |
| 3 | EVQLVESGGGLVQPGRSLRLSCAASGFTFDDYAMHWVRQAPGKGLEWVSGISKNSGSIGYAGSVKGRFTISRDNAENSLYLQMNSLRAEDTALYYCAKVGRGGGYFIYWGQGTLVTVSS | ND ND ND | ND | 0/9 |
| 4 | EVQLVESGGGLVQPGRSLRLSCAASGFTFDDYAMHWVRQAPGKGLEWVSGTSWNSGSIGYADSVKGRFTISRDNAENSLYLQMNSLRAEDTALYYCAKVGRGYGYFDQWGQGTLVTVSS | 5.21 5.85 5.93 | 5.66 | 6/9 (5.13) |
| 5 | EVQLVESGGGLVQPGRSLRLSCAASGFTFCDYAMHWVRQAPGKGLEWVSGISWNSGSYGYADSVKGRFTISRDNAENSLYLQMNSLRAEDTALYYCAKVGRGGGYFWYWGQGTLVTVSS | ND 4.09 ND | 4.09 | 1/9 (2.81) |
| 6 | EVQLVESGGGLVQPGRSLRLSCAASGFTFDDYAMHWVRQAPGKGLEWVSGISWNSGSIQYADSVKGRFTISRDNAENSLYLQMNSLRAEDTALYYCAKMGRGGGYFDYWGQGTLVTVSS | ND ND ND | ND | 2/9 (3.30) |
| 7 | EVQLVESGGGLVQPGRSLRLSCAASGFTFQDYAMRWVRQAPGKGLEWVSGISWNSGSIGYADSVKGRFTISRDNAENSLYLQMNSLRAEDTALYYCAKVGRGGGYFDYWGQGTLVTVSS | 5.28 5.65 5.38 | 5.44 | 3/9 (5.21) |
| 8 | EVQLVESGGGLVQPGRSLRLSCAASGFTFDDYAMHWVRQAPGKGLEWVSGISQNSGSIGYADRVKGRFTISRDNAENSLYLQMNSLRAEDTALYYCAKVGRGGGYFDYWGQGTLVTVSS | ND ND ND | ND | 1/9 (4.83) |
| 9 | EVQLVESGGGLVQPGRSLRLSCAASGYTFDDYAMHWVRQAPGKGLEWVSGISWNSGSIGYADSMKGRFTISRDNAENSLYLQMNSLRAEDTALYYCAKVGRGGGYFDNWGQGTLVTVSS | 2.58 2.61 2.21 | 2.46 | 3/9 (5.45) |
| 10 | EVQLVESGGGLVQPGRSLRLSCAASGFTFDWYAMHWVRQAPGKGLEWVSGISWNSGCIGYADSVKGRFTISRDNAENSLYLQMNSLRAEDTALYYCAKVGRGGGYMDYWGQGTLVTVSS | 4.64 ND ND | 4.64 | 0/9 |
| 11 | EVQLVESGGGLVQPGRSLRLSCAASGFTFDDYAMHWVRQAPGKGLEWVSGISCNLGSIGYADSVKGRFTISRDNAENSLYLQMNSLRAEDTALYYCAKVGRNGGYFDYWGQGTLVTVSS | ND ND ND | ND | 0/9 |
| 12 | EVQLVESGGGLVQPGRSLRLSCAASGFTFDRYAMHWVRQAPGKGLEWVSGYSWNSGSIGYADSVKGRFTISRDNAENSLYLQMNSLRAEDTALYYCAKVGRGGGYFDYWGQGTLVTVSS | ND ND ND | ND | 0/9 |
| 13 | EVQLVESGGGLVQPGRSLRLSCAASGFTFFDHAMHWVRQAPGKGLEWVSGISWNSGSIGYADSVKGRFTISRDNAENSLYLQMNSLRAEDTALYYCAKVGRGQGYFDYWGQGTLVTVSS | ND ND ND | ND | 2/9 (4.69) |
| 14 | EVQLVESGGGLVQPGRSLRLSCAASGFTFDDYAMHWVRQAPGKGLEWVSGIMWNSGSYGYADSGKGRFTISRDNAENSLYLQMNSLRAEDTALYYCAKVGRGGGYFDYWGQGTLVTVSS | 5.35 4.53 ND | 4.94 | 5/9 (4.90) |
| 15 | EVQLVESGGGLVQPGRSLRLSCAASGFTFYDYAMHWVRQAPGKGLEWVSGISWNSGSIGYADSVHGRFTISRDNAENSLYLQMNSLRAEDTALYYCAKVGRGGGYCDYWGQGTLVTVSS | ND ND ND | ND | 1/9 (3.67) |
| 16 | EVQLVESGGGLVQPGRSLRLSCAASGFLFDDYLMHWVRQAPGKGLEWVSGISWNSGSIGYADSVKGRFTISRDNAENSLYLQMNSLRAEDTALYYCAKVGRTGGYFDYWGQGTLVTVSS | ND 5.94 5.23 | 5.59 | 5/9 (3.87) |
| 17 | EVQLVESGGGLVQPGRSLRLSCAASGFTFDDYAMHWVRQAPGKGLEWVSGISWNSGWIGYADSVKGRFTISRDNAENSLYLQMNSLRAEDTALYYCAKVARGGFYFDYWGQGTLVTVSS | ND ND ND | ND | 0/9 |
| 18 | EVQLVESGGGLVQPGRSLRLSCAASGFTFDDYAMHWVRQAPGKGLEWVSGISWNQGSIGYADSVFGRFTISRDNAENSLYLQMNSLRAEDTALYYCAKVGRGGKYFDYWGQGTLVTVSS | ND ND ND | ND | 1/9 (3.04) |
| 19 | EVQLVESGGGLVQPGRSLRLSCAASGRTFEDYAVHWVRQAPGKGLEWVSGISWNSGSIGYADSVKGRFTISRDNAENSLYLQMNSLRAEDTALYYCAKVGRGGGYFDYWGQGTLVTVSS | ND ND ND | ND | 1/9 (4.56) |
| 20 | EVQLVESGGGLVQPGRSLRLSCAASFFTFDDYAMHWVRQAPGKGLEWVSGISWNSGSIGYADSVKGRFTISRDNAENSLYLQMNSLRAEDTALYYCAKVGRGGGFFDYWGQGTLVTVSS | 1.76 3.17 2.62 | 2.52 | 0/9 |
| 21 | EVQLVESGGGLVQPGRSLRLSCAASGFAFDDYAMHWVRQAPGKGLEWVSGISWNSGSIGYADSVFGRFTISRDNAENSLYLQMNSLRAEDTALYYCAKVGRGGVYFDYWGQGTLVTVSS | ND ND ND | ND | 1/9 (3.64) |
| 22 | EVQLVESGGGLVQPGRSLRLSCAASGFTFDDYAMHWVRQAPGKGLEWVSGISWNSESIGYADFVKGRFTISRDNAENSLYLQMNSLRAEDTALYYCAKVGRHGGYFDYWGQGTLVTVSS | 4.73 ND ND | 4.73 | 4/9 (4.68) |
| 23 | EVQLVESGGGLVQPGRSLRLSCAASGFTFEDYAEHWVRQAPGKGLEWVSGISVNSGSIGYADSVKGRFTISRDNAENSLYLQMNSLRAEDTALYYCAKVGRGGGYFDYWGQGTLVTVSS | ND ND ND | ND | 0/9 |
| 24 | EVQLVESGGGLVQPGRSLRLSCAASGFTFDDYAMHWVRQAPGKGLEWVSPISWNSGSIGQADSVKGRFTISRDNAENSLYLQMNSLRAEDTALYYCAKVGRGGGYTDYWGQGTLVTVSS | ND ND ND | ND | 0/9 |
| 25 | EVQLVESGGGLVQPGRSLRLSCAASGFTFDDYAMHWVRQAPGKGLEWVSGKSWNSGSICYADSVKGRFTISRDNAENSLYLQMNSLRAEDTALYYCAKVGRGGGYIDYWGQGTLVTVSS | ND ND ND | ND | 0/9 |
| 26 | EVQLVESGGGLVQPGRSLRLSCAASGFTFDDYNMHWVRQAPGKGLEWVSGISWNSGSIGYADEVKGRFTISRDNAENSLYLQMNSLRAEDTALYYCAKVGRGGGYKDYWGQGTLVTVSS | ND ND ND | ND | 1/9 (4.14) |

Picked from the list: the 4 lowest averages where every replicate gave a value.

VH	log10 Kd, replicates	log10 Kd (nM), mean	signal with controls
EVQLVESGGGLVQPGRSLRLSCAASGYTFDDYAMHWVRQAPGKGLEWVSGISWNSGSIGYADSMKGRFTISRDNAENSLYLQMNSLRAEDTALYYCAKVGRGGGYFDNWGQGTLVTVSS	2.58 2.61 2.21	2.46	3/9 (5.45)
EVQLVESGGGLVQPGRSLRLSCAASFFTFDDYAMHWVRQAPGKGLEWVSGISWNSGSIGYADSVKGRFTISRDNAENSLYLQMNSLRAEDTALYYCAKVGRGGGFFDYWGQGTLVTVSS	1.76 3.17 2.62	2.52	0/9
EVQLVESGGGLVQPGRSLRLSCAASGFTFDDYAMHWVRQAPGKGLEWVSGISWNSGSIGYADSVCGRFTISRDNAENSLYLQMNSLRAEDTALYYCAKVGRGGGYDDVWGQGTLVTVSS	5.16 4.62 4.51	4.76	3/9 (4.58)
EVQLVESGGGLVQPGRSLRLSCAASGFTFQDYAMRWVRQAPGKGLEWVSGISWNSGSIGYADSVKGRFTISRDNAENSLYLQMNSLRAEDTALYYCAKVGRGGGYFDYWGQGTLVTVSS	5.28 5.65 5.38	5.44	3/9 (5.21)

Data: MIT Lincoln Laboratory AlphaSeq set, Engelhart et al. 2022, doi:10.1038/s41597-022-01779-4, as distributed in FLAb.